Target: clonidine: α2-receptor (Rattus norvegicus, UniProt P22909)
Details: read-out: Inhibition of clonidine binding activity IC50

The chains behind the UniProt entries cited, without tags or fusion partners.
UniProt P22909, whole entry: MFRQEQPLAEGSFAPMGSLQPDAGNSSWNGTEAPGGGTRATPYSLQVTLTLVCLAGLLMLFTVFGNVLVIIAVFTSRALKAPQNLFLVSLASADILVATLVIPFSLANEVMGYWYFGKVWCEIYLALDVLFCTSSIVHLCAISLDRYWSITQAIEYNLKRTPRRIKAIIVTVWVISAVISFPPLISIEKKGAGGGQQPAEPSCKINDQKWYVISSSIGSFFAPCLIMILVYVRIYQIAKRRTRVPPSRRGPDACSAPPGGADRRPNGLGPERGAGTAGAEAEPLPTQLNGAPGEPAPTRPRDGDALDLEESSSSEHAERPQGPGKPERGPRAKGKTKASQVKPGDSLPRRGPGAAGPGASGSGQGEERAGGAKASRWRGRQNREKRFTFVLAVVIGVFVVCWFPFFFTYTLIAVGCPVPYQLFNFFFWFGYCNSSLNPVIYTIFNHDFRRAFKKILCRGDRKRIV

CN(C)CCC=C1c2ccccc2CCc2ccccc21 [amitriptyline]
IC50: 39 nM
